## Yeast mating assay 2: variants of the scFv Ab-91

Values reported by Engelhart et al. 2022, doi:10.1038/s41597-022-01779-4 (FLAb copy).

Target peptide (SARS-CoV-2 spike, HR2 region): PDVDLGDISGINAS

The variants keep the light chain, the linker and the frameworks of Ab-91 (scFv order VL, a (GGGGS)3 linker, VH).
VL: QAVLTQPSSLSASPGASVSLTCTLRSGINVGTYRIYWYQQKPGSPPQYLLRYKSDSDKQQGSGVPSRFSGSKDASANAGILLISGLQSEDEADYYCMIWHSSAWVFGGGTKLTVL
VH: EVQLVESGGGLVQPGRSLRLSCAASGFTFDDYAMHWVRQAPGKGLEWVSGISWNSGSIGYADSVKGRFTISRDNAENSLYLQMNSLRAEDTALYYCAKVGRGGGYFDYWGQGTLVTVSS

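The starting antibody came from a phage panning campaign against this peptide. Variants in AAYL51 differ from the parent at up to three CDR positions; double and triple changes were sampled at random. Affinity was read by AlphaSeq, a pooled yeast mating assay with surface-displayed partners. Pairs that bind mate more often; barcode pairs of the diploids are counted by sequencing. The ratio of observed to expected reads was calibrated, replicate by replicate, on BCL2-family standards whose Kd was known from biolayer interferometry. There are three technical replicates.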

Changes read parent residue, position, new residue, counted from the first residue of the VH shown. Values are apparent Kd, the geometric mean of the replicates that gave a signal; lower means stronger binding. "nd" marks a missing value. The strain was present, yet no cells mated with the target were sequenced in any replicate, which points to weak or no binding. Entries are sorted by rising average, undetected variants last. Nonspecific signal, from three strains lacking the peptide, appeared in 21% of pairings of library AAYL51, centred on 34 µM (5% of these signals below 1.8 µM); values are not corrected for it. The control count says in how many pairings with the empty strains this scFv gave a signal.

changes	apparent Kd	replicates with signal	signal with controls
A33G/Y105I	4.3 nM	3 of 3	0 of 9
W53A/I58Y/G103K	57 nM	3 of 3	2 of 9
T28H/D30Y/Y108D	83 nM	3 of 3	0 of 9
G56K/A61H/G104Y	350 nM	3 of 3	1 of 9
T28A/F29T/R101P	540 nM	3 of 3	2 of 9
A33N/G100A/G102S	4.2 µM	1 of 3	2 of 9
F29N/Y32L/D62G	5.2 µM	1 of 3	1 of 9
G26F/F27C/A61Y	8.2 µM	1 of 3	1 of 9
Y32F/S55T/G56H	8.6 µM	2 of 3	1 of 9
G50V/V99C/G103I	25 µM	1 of 3	1 of 9
D30P/I51T/S63A	26 µM	3 of 3	3 of 9
F29M/Y32L/W53H	27 µM	1 of 3	1 of 9
F29L/A33C/S63Q	31 µM	2 of 3	6 of 9
S57P/V64H/Y105T	33 µM	2 of 3	2 of 9
F29P/A61Q	34 µM	1 of 3	0 of 9
D30W/W53Q/D62P	35 µM	1 of 3	0 of 9
T28E/M34D/V99C	35 µM	1 of 3	0 of 9
G59W/V99I/Y105N	37 µM	2 of 3	3 of 9
Y32W/G50V/S52T	40 µM	1 of 3	1 of 9
G26L/Y32K/G100N	48 µM	1 of 3	1 of 9
F27L/D62R/Y105P	61 µM	1 of 3	0 of 9
T28L/S52K/W53C	63 µM	3 of 3	4 of 9
F27Y/H35D/K65P	67 µM	3 of 3	8 of 9
I58C/A61F/G104A	72 µM	1 of 3	2 of 9
D30K/S52V	92 µM	1 of 3	2 of 9
D30L/A33D/S63P	100 µM	2 of 3	5 of 9
S52P/Y60K/G103M	120 µM	2 of 3	4 of 9
N54I/K65T/R101N	140 µM	3 of 3	5 of 9
M34G/N54F/D107P	290 µM	1 of 3	5 of 9
G26Y/T28D/S52L	300 µM	2 of 3	5 of 9
T28V/I51G/F106T	2.7 mM	1 of 3	6 of 9
M34H/S55P/R101M	nd	0 of 3	1 of 9
G56T/I58D/G103Y	nd	0 of 3	1 of 9
I51S/N54L/G59Q	nd	0 of 3	0 of 9
I51G/G59A	nd	0 of 3	0 of 9
D30R/M34C/G102Q	nd	0 of 3	0 of 9
T28L/D62K/K65P	nd	0 of 3	0 of 9
F27G/G59V/V99L	nd	0 of 3	1 of 9
T28M/G59T/V99Q	nd	0 of 3	0 of 9
F27S/S63F	nd	0 of 3	1 of 9
D31M/G100N/R101M	nd	0 of 3	0 of 9
F29G/D30Y/M34T	nd	0 of 3	1 of 9
T28M/I58F/D107A	nd	0 of 3	0 of 9
S55M/R101H/D107F	nd	0 of 3	0 of 9
Y32M/I51G/S57I	nd	0 of 3	4 of 9
M34A/G100I/F106I	nd	0 of 3	3 of 9
D30L/I51T/G104D	nd	0 of 3	1 of 9
N54I/A61Y/D62V	nd	0 of 3	0 of 9
F29A/W53L/R101V	nd	0 of 3	2 of 9
S63H/V99Y/G103I	nd	0 of 3	1 of 9
F27V/A33E/G56R	nd	0 of 3	0 of 9
D31K/H35G/I58N	nd	0 of 3	1 of 9

The 5 strongest on average among those seen in every replicate, once more:

| changes | apparent Kd | replicates with signal | signal with controls |
|---|---|---|---|
| A33G/Y105I | 4.3 nM | 3 of 3 | 0 of 9 |
| W53A/I58Y/G103K | 57 nM | 3 of 3 | 2 of 9 |
| T28H/D30Y/Y108D | 83 nM | 3 of 3 | 0 of 9 |
| G56K/A61H/G104Y | 350 nM | 3 of 3 | 1 of 9 |
| T28A/F29T/R101P | 540 nM | 3 of 3 | 2 of 9 |